# Data from paper PMC11772769, “Selective cargo and membrane recognition by SNX17 regulates its interaction with Retriever” (EMBO Reports, 2024).
# Experiments:
# [1] = biological target: Peptide SNX17_(CT-18) (UniProt Q15036); test: fluorescence polarisation
# [2] = biological target: His-Sumo3-SNX17 (UniProt Q15036); test: co-sedimentation
Kd [1],percent of Retriever sedimented with PI3P liposomes in the presence of SNX17 [2],Substance
5.7 µM,–,Retriever complex (from UniProt O14972 1-297; Q9UBQ0 1-182; Q7Z3J2 1-963)
–,22%,Retriever complex (from UniProt O14972 1-297; Q9UBQ0 1-182; Q7Z3J2 1-963) (complex; other documents disagree on this pair)
